Key:
[1] = tested on: female flies (houseflies); assay: Synergisability with sesamex, 2 μg per fly pretreatment; type: in vivo, Musca domestica; details: for LD 50 active compound + synergist: pretreated with 2 μg. per fly sesamex; for LD 50 active compound only: untreated flies
Experimental: (§1) Female flies were treated on the thorax with a one microliter drop of insecticide dissolved in acetone. Two replicates of 15 flies were used at each dose rate and 6 dose rates were used per compound under test. After treatment, the flies were maintained at a temperature of 20° C.±1° and kill was assessed 24 and 48 hours after treatment. LD50 values were calculated in micrograms of insecticide per fly and relative toxicities were calculated from the inverse ratios of the LD50 values. (see Sawicki et al, Bulletin of the World Health Organization, 35,893, (1966) and Sawicki et al, Entomologia and Exp. Appl. 10, 253, (1967)).
The following results were obtained

[2] = tested on: houseflies (Musca domestica); assay: Relative toxicity to houseflies, topical drop on thorax; type: in vivo; details: 5-benzyl-3-furylmethyl (1R)-trans-chrysanthemate = 1000, inverse ratio of LD50, female flies
Experimental: (§2) The toxicity of these new esters was tested by the procedure described in detail in our above mentioned application and the following results were obtained:
(§3) The insecticidal acitivity of the esters of the invention was assessed against houseflies and mustard beetles using the following techniques:
as §1
(§4) Relative toxicities were calculated by comparison with 5-benzyl-3-furylmethyl(1R)-trans-chrysanthemate which is one of the most toxic chrysanthemate esters known to houseflies and mustard beetles, its toxicity being about 24 times that of allethrin to houseflies and 65 times that of allethrin to mustard beetles.

[3] = tested on: mustard beetles (Phaedon cochleariae Fab); assay: Relative toxicity to mustard beetles, topical micro drop; type: in vivo; details: 5-benzyl-3-furylmethyl (1R)-trans-chrysanthemate = 1000, inverse ratio of LD50, 48 hours
Experimental: as §2, §3
Acetone solutions of the test compound were applied ventrally to adult mustard beetles using a micro drop applicator. The treated insects were maintained for 48 hours after which time kill is assessed. Two replicates of 40 to 50 mustard beetles were used at each dose level and 3 to 4 dose levels were used for each compound. Again, LD50 values were calculated and relative toxicities were calculated for the inverse ratios of LD50 (see Elliott et al, J. Sci. Food Agric. 20, 561, (1969)).
as §4

[4] = listed as 5-benzyl-3-furylmethyl (1R)--trans-chrysanthemate

CC(C)=CC1C(C(=O)OCc2coc(Cc3ccccc3)c2)C1(C)C (racemic) [5-benzyl-3-furyl methyl (1RS)--cis-trans-chrysanthemate, reference compound]
LD 50 active compound + synergist [1]: 0.00079 μg. per female fly
LD 50 active compound only [1]: 0.010 μg. per female fly

CC(C)=C[C@@H]1[C@@H](C(=O)OCc2coc(Cc3ccccc3)c2)C1(C)C [Bioresmethrin, 5-benzyl-3-furylmethyl (1R)--trans-chrysanthemate, reference compound]
LD 50 active compound + synergist [1]: 0.00057 μg. per female fly
LD 50 active compound only [1]: 0.0054 μg. per female fly
Relative Toxicity, Houseflies [2]: 1,000
Relative Toxicity, Houseflies [2, 4]: 1000
Relative Toxicity, Mustard Beetles [3]: 1,000
Relative Toxicity, Mustard Beetles [3, 4]: 1000

Source: patent US4622337A, “2,2-dimethyl-3-(2-halovinyl)cyclopropane carboxlic acid ester pesticides” (priority 1972, dated 1986)
